GIV-Gai inh: blocks GIV peptide binding to rat Galpha-i3; Galpha-i3/FITC-GIV peptide fluorescence polarization, 90 min; stronger effect = lower value; scaled: aluminum fluoride 0%, vehicle 100%; P08753; hit rate 0.42% among 210,000; AID 1224905; percent of control (FP), % (test concentration not listed);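 active = replicate mean at 85% of control or lower, very high polarization wells dropped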;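 also: wells of about 15 µL received 100 nL stock; the first replicate is given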
GIV Gai FP conf: inhibitors of GIV peptide binding to Galpha-i3, confirmation, biochemical, fluorescence polarization, FITC-GIV peptide, rat Galphai3. shares compounds with GIV-Gai inh. active compounds read low. fluorescence polarization, mP at 100 µM. hit rate 38% among 580;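 active = inhibition score of 15 or more, meaning 100 minus mean polarization as percent of control over three replicates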;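 also: lower mP means peptide displaced from Galphai3 so more inhibition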
GIV Gai AS conf: inhibitors of GIV binding to Galpha-i3, confirmation, orthogonal assay for GIV-Galpha-i inhibitor project, biochemical, AlphaScreen, His-GIV, GST-Galphai3. shares compounds with GIV-Gai inh. purified proteins, 90 min; active compounds read low. AlphaScreen counts at 100 µM. hit rate 39% among 580. AID 1259351, 2017;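 active = inhibition score at or above a set limit, where the score is 100 minus the three-replicate mean percent of control signal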
Numbers stand for hits; n = inactive; ! = not confirmed by another sample. Only a selection was taken, and hits are over-represented in it overall.

SMILES | GIV-Gai inh | others
CCN(CC)C(=O)/C=C/c1ccc2c(c1)OCO2 | n
CC(C)(O)C(=O)/C=C/c1ccc2c(c1)OCO2 | 83.6 | GIV Gai FP conf=n;GIV Gai AS conf=27857
CC(C)(C)C(=O)O/N=C/c1ccc2c(c1)OCO2 | n
Oc1ccc(Cl)cc1C1=Nc2ccccc2N=C(c2ccc(Br)cc2)C1 | n
Oc1ccc(Cl)cc1C1=Nc2ccccc2N=C(c2ccc(Cl)cc2)C1 | n
Oc1ccccc1C1=Nc2ccccc2N=C(c2ccc(Cl)cc2)C1 | 72.2! | GIV Gai FP conf=n;GIV Gai AS conf=n
CNc1nc(NC(C)C)c2cnn(C)c2n1 | n
COc1ccc(N2CCN(C(=O)Cn3ccc4c(c(C)nn4-c4ccccc4)c3=O)CC2)cc1 | n
COc1cc(/C=C2\C(=O)NC(=O)N(C)C2=O)ccc1OCc1ccc(C(=O)O)cc1 | n
O=C(O)COc1ccc(/C=C2\C(=O)NC(=S)N(c3ccc(F)cc3)C2=O)cc1Br | n
O=C(O)COc1ccc(/C=C2\C(=O)NC(=S)N(c3ccccc3)C2=O)cc1Cl | n
COc1cc(/C=C2\C(=O)NC(=O)N(c3ccccc3)C2=O)ccc1OCc1ccc(C(=O)O)cc1 | n
O=C1NC(=S)NC(=O)C1=Cc1ccc(OCc2ccc(C(=O)O)cc2)c(Br)c1 | n | GIV Gai FP conf=10.6;GIV Gai AS conf=2330
O=C(O)COc1ccc(/C=C2\C(=O)NC(=S)N(c3ccc(Cl)cc3)C2=O)cc1Br | 73.0 | GIV Gai FP conf=33.9;GIV Gai AS conf=n
CC(C)(C)NC(=O)CCCc1nc(-c2ccccc2)no1 | n
COc1ccc(NC(=O)C(C)SC2=Nc3ccccc3C3=NC(C)C(=O)N23)cc1 (stereo unspecified) | n
CC(/C=C/c1ccc[n+](C)c1)=C\C(=O)O | n
CC1(C2CCCCC2)Cc2ccccc2-c2nc(SCC(N)=O)n(Cc3ccccc3)c(=O)c21 (stereo unspecified) | n
Cc1ccc(-c2nnc(-c3cccc(S(=O)(=O)Nc4ccccc4O)c3)o2)cc1 | n
Cc1ccc(N2C(=O)/C(=C/c3cc(Br)ccc3O)C(=O)NC2=S)cc1C | n
Cc1ccc(/C=C2/C(=O)NC(=O)N(C3CCCCC3)C2=O)cc1 | n
Cc1cc(N2Cc3ccccc3C2)ccc1/C=C1/C(=O)NC(=O)N(C2CCCCC2)C1=O | n | GIV Gai FP conf=n;GIV Gai AS conf=n
CCN(CC)Cc1cc(OCc2nc(-c3cccc(C)c3)oc2C)nc2c1c(C)nn2C | n
O=C(CC1(O)C(=O)N(Cc2ccc(Cl)cc2)c2ccccc21)c1ccc2c3c(cccc13)CC2 (stereo unspecified) | n
Cc1cc(C(=O)Nc2cc(C)n(Cc3ccc(Cl)cc3)n2)on1 | n
SMILES | GIV-Gai inh | others
Cc1cc(C(F)(F)F)c2c(n1)sc1c(O)cc(=O)[nH]c12 | n
O=c1cc(O)c2sc3nc(-c4ccco4)cc(C(F)(F)F)c3c2[nH]1 | 71.9 | GIV Gai FP conf=59.9;GIV Gai AS conf=5742
COc1ccc(C(=O)c2sc3nc(-c4ccco4)cc(C(F)(F)F)c3c2N)cc1OC | n
CCCCC(c1nnnn1CCc1ccccc1)N1CCN(C2CCCC2)CC1 (stereo unspecified) | n
CCOC(=O)c1sc2nc(SCc3cc(C(C)=O)ccc3OC)n(Cc3ccco3)c(=O)c2c1C | n
CC(C)CNC(=O)C1CCCN(c2ncc(-c3ccc(F)cc3)cn2)C1 (stereo unspecified) | n
Cc1ccc(Cn2c(C(=O)NCc3ccccc3)cc3sccc32)cc1 | n
CN1CCSc2ccc(C(=O)NC3CCCCC3)cc21 | n
CCOC(=O)c1ccc(Nc2nc3ccccc3n3cnnc23)cc1 | n
Cc1ccc(C(=O)O)cc1Nc1nc2ccccc2n2cnnc12 | 75.6 | GIV Gai FP conf=42.7;GIV Gai AS conf=18787
COc1ccc(C(=O)O)cc1Nc1nc2ccccc2n2c(C)nnc12 | n
Cc1c(NC(=O)CCN2C(=O)/C(=C/c3c(Cl)cccc3Cl)SC2=S)c(=O)n(-c2ccccc2)n1C | n
COc1ccc(-n2ncc(C(=O)Nc3ccccn3)c2C2CCN(C(=O)OC(C)(C)C)CC2)cc1 | n
COc1ccccc1N/C=C/C(=O)c1ccccc1 | n
CCc1ccc(C2=C(C)C(N3CCC(NC(=O)C(C)(C)CC)CC3)=NS2(=O)=O)cc1 | n
C#CCn1c(=NC(=O)c2ccc3c(c2)OCCO3)sc2cc(OC)c(OC)cc21 | n
COCCn1c(=NC(=O)c2ccc3c(c2)OCCO3)sc2cc(NC(C)=O)ccc21 | 80.4 | GIV Gai FP conf=n;GIV Gai AS conf=n
CCOCCn1c(=NC(=O)c2ccc3c(c2)OCCO3)sc2cc(OCC)ccc21 | n
Cc1ccccc1N1NC(=O)C(C)(C)C1=O | n
Cc1nc2ccc(O)cc2o1 | n
Oc1ccc2c(c1)oc1cc(O)ccc12 | n
CC[N+](CC)=c1ccc2ccc(O)cc2o1 | 63.0 | GIV Gai FP conf=43;GIV Gai AS conf=33013
O=C(NC1CCCC1)C1CCc2sc(C(=O)N3CCCC3)cc2C1 (stereo unspecified) | n
Cc1cc(Sc2ccc(NC(=O)Nc3ccc(Cl)cc3)cc2)n2ncnc2n1 | n
Cc1cc2c(NC(=O)COCC(=O)O)cccc2nn1 | 73.5 | GIV Gai FP conf=55.1;GIV Gai AS conf=16084
SMILES | GIV-Gai inh | others
NC(=O)c1ccccc1NC(=O)COCC(=O)O | n
Cc1cc2c(NC(=O)CC(C)(C)CC(=O)O)cccc2nn1 | n
CN(C)S(=O)(=O)c1cccc(C(=O)CN2C(=O)COc3ccccc3C2=O)c1 | n
Nc1c2c(nn1-c1ccccc1)CC(=O)NC2=O | 59.8 | GIV Gai FP conf=47.2;GIV Gai AS conf=31739
Nc1c2c(nn1-c1ccccc1)Oc1ccc(Cl)cc1C2 | n
O=C1CN(c2ccccc2)C(=O)N1 | n
COc1ccc(-c2ccc(CNCCO)o2)cc1Cl | n
CCOC(=O)c1sc2ncn3c(-c4ccc(C)cc4)nnc3c2c1C | n
CCNc1cc(C)nc(Nc2ccc(NC(C)=O)cc2)n1 | n
Cc1[nH]oc(=O)c1C=Nc1ccccc1 | n
CN(C)c1ccc(C=Nc2ccc(C(=O)O)c(O)c2)cc1 | n
Cc1[nH][nH]c(=O)c1C=Nc1ccc(O)c(C(=O)O)c1 | n | GIV Gai FP conf=n;GIV Gai AS conf=6341
CCOc1cc(-c2nc3sc4c(c3c(=O)[nH]2)CCCC4)ccc1OCCOc1ccc(C)c(C)c1 | n
CCC1C(=O)N=C(SCC(=O)Nc2nc3ccc(C)cc3s2)NC1=O (stereo unspecified) | n
O=C1CC(c2ccc(C3=NN(c4ccccc4)C(=O)C3)cc2)=NN1c1ccccc1 | n
CC1(C)Cc2c(nn(-c3ccccc3)c(=O)c2C#N)CO1 | n
CC1(C)C=C2C(=NN(c3ccccc3)C(N)=C2C#N)CO1 | 82.8 | GIV Gai FP conf=n;GIV Gai AS conf=n
CCOC(=O)c1[nH]c(C)c(CN(Cc2ccc(C)cc2)C(=O)Nc2ccc(OC)cc2)c1C | n
O=C(Cn1c(=O)c2ccccc2n2c(=S)sc(-c3ccccc3)c12)NCC1CCCO1 (stereo unspecified) | 77.8 | GIV Gai FP conf=n;GIV Gai AS conf=n
CCN(CC)C(=O)Cn1c(=O)c2ccccc2n2c(=S)sc(-c3ccc(Br)cc3)c12 | n | GIV Gai FP conf=n;GIV Gai AS conf=n
CCN(CC)C(=O)Cn1c(=O)c2ccccc2n2c(=S)sc(-c3ccccc3F)c12 | n
O=C(Cn1c(=O)c2ccccc2n2c(=S)sc(-c3ccc(Br)cc3)c12)N1CCCC1 | n
Cc1ccccc1NC(=O)Cn1c(=O)n(-c2ccc(CC(=O)NCC3CCCO3)cc2)c(=O)c2ccccc21 (stereo unspecified) | n
